# Screening results from PubChem BioAssay.
# EPAC2 antagonist: EPAC2 (human) antagonism | Q8WZA2 | EPAC2 GEF exchange of Rap1B-BODIPY-GDP, fluorescence | Potency, µM (highest dose often 114 µM), for the others: at the top dose activity, negative = inhibition, usual class: inhibitors | 360,000 compounds, 0.18% hits | AID 720708; further: on the % scale 0 is the no-effect control and ±100 the full control effect; nearly all actives have a fitted effect of over 45% in size
# EPAC1 antagonist: antagonists of human EPAC1 | O95398 | Potency, µM (highest dose often 115 µM), inactives show at the top dose activity change, negative = inhibition, hits mostly inhibitors | EPAC1 GEF assay, Rap1b-BODIPY-GDP exchange fluorescence | 360,000 compounds, 0.14% hits;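 further: plate controls were vehicle for no effect and positive control for full effect; nearly all actives have a fitted effect of over 50% in size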
# Rango dissoc inh: inhibitors of RanGTP-induced Rango-importin beta complex dissociation; Biochemical FRET Rango-importin beta, RanGTP-induced dissociation; 340,000 compounds, 0.071% hits; AID 540253; Potency, µM (doses to about 46.1 µM), for the others: at the top dose activity change, negative = inhibition; calls by dose curve; further: % of control where 0% means no effect; nearly all actives have a fitted effect of over 45% in size
#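 FRET read at 45 min, room temperature: inhibitors block the CFP/YFP signal rise when RanGTP (0.6 uM Ran, 2 mM GTP, 0.2 uM RCC1) frees Rango (0.1 uM) from importin beta (0.25 uM). Pre-read after 5 min compound exposure flags interference.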
# Rango-impB inh: inhibitors of Rango-importin beta complex formation; Q14974; Rango CFP/YFP FRET sensor + importin beta, 45 min; 340,000 compounds, 0.031% hits; Potency, µM (top dose mostly 92.2 µM), without a hit: at the highest dose inhibition of complex formation; calls by dose curve;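 further: 0% = DMSO wells and 100% = buffer wells lacking importin beta; nearly all actives have a fitted effect of over 15% in size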
#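 FRET biosensor Rango (snurportin 1 IBB between N-terminal EYFP and C-terminal Cerulean), 50 nM in PBS/1 mM DTT/0.02% Tween-20/0.1% BSA, preincubated 5 min RT with compound; 0.125 microM importin beta added, 45 min RT, CFP/YFP FRET ratio read.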
# EPAC2 agonist: EPAC2 (human) agonism | Q8WZA2 | EPAC2 activation, biochemical qHTS; response scale: 100% = 6.5 mM cAMP response | Potency, µM (doses to about 154 µM), inactives show at the highest dose activation, hits mostly activators | 360,000 compounds, 0.079% hits | AID 720711; further: nearly all actives have a fitted effect of over 50% in size
#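 Compounds were titrated in qHTS against a Rap1B-BODIPY-GDP (250 nM) complex with EPAC2 (100 nM) and GDP (50 uM). BODIPY-GDP release tracked at 480/540 nm over 30 min at room temperature, normalized to 6.5 mM cAMP.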
# EPAC1 agonist: EPAC1 (human) agonism; EPAC1 agonist qHTS, biochemical assay; response scale: 100% = response to 6.5 mM cAMP; 360,000 compounds, 0.073% hits; Potency, µM (top dose mostly 154 µM), for inactives: at the highest dose activation, usual class: activators; O95398; further: nearly all actives have a fitted effect of over 60% in size
#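 Normalized to 6.5 mM cAMP, activity reflects EPAC1-catalysed release of BODIPY-GDP from Rap1B, followed kinetically over 30 min at 480 nm excitation, 540 nm emission. Reaction contained 100 nM EPAC1, 250 nM Rap1B-BODIPY-GDP, 50 uM GDP.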
# Starred values were filed as active, the others as inactive; u = inconclusive; x = no result; [ ] = another dose, or the depositor's remark. This is a sample that favours compounds with a hit; in the whole collection about 0.43% have one here. Unless noted, the call rests on the fitted dose curve; in most records, active means well fitted curve in the direction sought with a large enough effect; inconclusive means small, poorly fitted or top-dose-only effect, or another doubt; inactive means no such curve, though single readings can be large; an effect the other way counts as inactive or inconclusive. Potency means the concentration at half of the fitted maximal effect.
1: O=[N+]([O-])c1ccc(N/N=C/c2c[nH]c3ccccc23)cc1
2: O=S(=O)(O)c1ccc(NN=Cc2ccccc2O)cc1
3: O=C(NCC(=O)N1CCN(c2ncccn2)CC1)c1cccs1
4: Oc1ccc(NCc2cccc(OCc3ccc(F)cc3)c2)cc1
5: Oc1ccc(NCc2cccc(OCc3ccccc3)c2)cc1
6: CCN1C(=O)C2C(c3cccc(F)c3)NC(C)(C(=O)OC)C2C1=O (stereo not given)
Assay by compound	1	2	3	4	5	6
EPAC2 antagonist	-3.4%	22.4µM*	-5.0%	-29.0%	u	13.7%
EPAC1 antagonist	-17.6%	-11.3%	-1.2%	44.7µM*	31.6µM*	7.5%
Rango dissoc inh	u	-10.8%	-21.6%	11.7%	-15.1%	6.7%
Rango-impB inh	20.6µM*	-2.1%	0.8%	-0.8%	4.0%	-1.3%
EPAC2 agonist	-8.6%	-8.9%	1.9%	18.1%	7.3%	4.0%
EPAC1 agonist	4.1%	-6.2%	9.7%	13.6%	-13.0%	-6.3%

# 3 of the entries above in order of the Rango-impB inh value, smallest number first.
entry	mol	EPAC2 antagonist	EPAC1 antagonist	Rango dissoc inh	Rango-impB inh
2	O=S(=O)(O)c1ccc(NN=Cc2ccccc2O)cc1	22.4µM*	-11.3%	-10.8%	-2.1%
6	CCN1C(=O)C2C(c3cccc(F)c3)NC(C)(C(=O)OC)C2C1=O (stereo not given)	13.7%	7.5%	6.7%	-1.3%
5	Oc1ccc(NCc2cccc(OCc3ccccc3)c2)cc1	u	31.6µM*	-15.1%	4.0%

# Next part:
7: COc1cccc(NC(=O)CN(C)C(=O)CNC(=O)c2ccc(Oc3ccccc3)cc2)c1
8: C=CCn1c(=O)c2ccccc2n2nnc(C(=O)OCC)c12
9: O=[N+]([O-])c1ccc2c(c1)C=C1CCCCC1(N1CCCC1)O2 (stereo not given)
10: CCOC(=O)C1=C(C)N=c2s/c(=C\c3cccn3C)c(=O)n2C1c1cccc(OC)c1OC (stereo not given)
11: N#C/C(=C/c1cccn1-c1cccc(C(=O)O)c1)c1ccc(Cl)cc1
12: O=C1NC(=S)SC1=Cc1cccs1
Assay by compound	7	8	9	10	11	12
EPAC2 antagonist	4.5%	-2.1%	-4.1%	16.6%	39.8µM*	u
EPAC1 antagonist	1.1%	-13.1%	-9.1%	3.5%	-12.0%	u
Rango dissoc inh	-1.4%	-14.0%	6.7%	u	-8.8%	5.4%
Rango-impB inh	0.5%	2.1%	-0.2%	u	-4.5%	1.1%
EPAC2 agonist	10.2%	5.0%	16.9%	112µM*	-1.9%	8.4%
EPAC1 agonist	63.1µM*	2.9%	5.7%	22.4%	-9.4%	-10.4%

13: CN1CCC/C1=C/C=C1\SC(=S)NC1=O
14: Cc1ccc2nc(-c3ccccc3)cc(C(=O)N3CC(C)OC(C)C3)c2c1 (stereo not given)
15: Cc1ccc(N(C)C(=O)N2CCN(c3ccccn3)CC2)cc1
16: CN(C(=O)CSc1nnc(Cc2ccccc2F)n1N)C1CCCCC1
17: CCC(NC(=O)OC(C)(C)C)C(=O)Oc1ccc2c3c(c(=O)oc2c1)CCC3 (stereo not given)
18: CC(C)Oc1ccc2c3c(c(=O)oc2c1)CCC3
Assay by compound	13	14	15	16	17	18
EPAC2 antagonist	28.0%	-4.2%	-17.1%	-3.0%	-5.7%[57.1 µM]	11.9%
EPAC1 antagonist	111.2%	-23.6%	-1.6%	-7.0%	-4.1%	6.2%
Rango dissoc inh	u	-5.1%	43.8%	4.7%	11.6µM*	-7.2%
Rango-impB inh	u	5.8%	-0.6%	-0.3%	u	2.5%
EPAC2 agonist	112µM*	-0.9%	3.0%	-0.7%	-10.2%	-1.5%
EPAC1 agonist	63.1µM*	u	7.7%	-4.2%	-3.4%	-0.1%

19: CC(=O)Oc1ccc2c3c(c(=O)oc2c1)CCCC3
20: CC(C)(C)OC(=O)NCCCCCNC(=O)c1[nH]cnc1C(=O)NC1CCN(C(=O)OC(C)(C)C)CC1
21: CC1CC1c1ccc(/C=C(\C#N)C(=O)Nc2cc(Cl)ccc2Cl)o1 (stereo not given)
22: COc1ccc(C2CC(c3cccs3)=NN2c2ccc(C=O)cc2)cc1 (stereo not given)
23: CC(O)(c1cccc(F)c1)c1nc(-c2cccc(C(=O)O)c2)cs1 (stereo not given)
24: COc1ccc(C(=O)c2ccccc2)c2c(O)ccc(C(=O)c3ccccc3)c12
25: COc1ccccc1NC(=O)c1cc(OC)c(OC)cc1[N+](=O)[O-]
26: COc1cc(C(=O)c2ccccc2)c([N+](=O)[O-])cc1OC
Assay by compound	19	20	21	22	23	24	25	26
EPAC2 antagonist	3.7%	-17.2%	21.1%	22.0%	-11.0%	5.1%	7.7%	79.4µM*
EPAC1 antagonist	-6.6%	-13.8%	76.8%	108.5%	-12.6%	-1.0%	-2.1%	-2.7%
Rango dissoc inh	20.6µM*	7.1%	u	u	x	-5.0%	12.1%	2.1%
Rango-impB inh	u	-0.7%	u	u	x	-1.3%	0.1%	1.0%
EPAC2 agonist	1.5%	-15.6%	3.3%	13.5%	3.3%	6.31µM*	19.0%	3.4%
EPAC1 agonist	8.0%	-17.9%	89.1µM*	89.1µM*	8.8%	-14.1%	8.8%	-9.2%
